AlphaSeq binding of Ab-14 light chain variants to a spike HR2 peptide

The measurements come from Li et al. 2023 (doi:10.1038/s41467-023-39022-2) through the FLAb antibody collection.

Target: peptide PDVDLGDISGINAS, taken from heptad repeat 2 (HR2) of SARS-CoV-2 spike.

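The starting antibody came from a phage panning campaign against this peptide. Designed CDR sequences, proposed from the first random library and measured here. Group labels follow the data file (Ctrl: baseline library sampled from a position-specific scoring matrix, with some repeated check sequences; Rand: our label for a block that the file lists under HC and that is probably the random mutants of the ten best first-round binders; En: ensemble of fine-tuned language models; GP: Gaussian process model; HC: hill climbing; Gen: genetic algorithm; Gibbs: Gibbs sampling; a sequence that several methods proposed may carry one label only). In AlphaSeq, yeast of one mating type display the scFv and yeast of the other type display the target. Pairs that bind mate more often; barcode pairs of the diploids are counted by sequencing. The ratio of observed to expected reads was calibrated, replicate by replicate, on BCL2-family standards whose Kd was known from biolayer interferometry. The assay was run in six technical replicates.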

Parent scFv Ab-14: VH joined to VL by the linker GGGGSGGGGSGGGGS. Changes lie in the light chain CDRs alone.
VH: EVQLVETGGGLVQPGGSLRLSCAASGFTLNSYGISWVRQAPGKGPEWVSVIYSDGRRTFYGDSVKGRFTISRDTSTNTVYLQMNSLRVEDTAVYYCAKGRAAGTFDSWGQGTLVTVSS
VL: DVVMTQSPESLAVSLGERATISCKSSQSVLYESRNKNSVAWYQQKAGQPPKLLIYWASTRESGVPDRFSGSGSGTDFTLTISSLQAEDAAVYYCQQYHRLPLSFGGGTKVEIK

Variants are written as CDR1, CDR2 and CDR3 of the light chain (limits as in the source). Parent: KSSQSVLYESRNKNSVA, WASTRES, QQYHRLPLS.
Affinities are written as log10 Kd with Kd in nM; a lower number is a better binder.
The mean shown is taken over the replicates in which the pair was detected.
"not detected" means that the variant was in the library but no mating with the target was seen in any replicate; the authors take this as a sign of poor binding, and no number exists.
Empty control strains, which show no peptide, gave a signal in 4% of pairings with all light chain designs; the median was 2.64 and 95% of these signals were weaker than 1.59. No background was subtracted.
The range of this assay differs from that of the first round, and the authors advise against merging the two.
The authors' rule: three or more of the six replicates give a measured affinity, fewer mean a poor binder.
Of ten entries with the parent sequence, four were seen in most replicates (averages 0.34 to 2.37), three in one and three in none, so single entries are noisy.

CDR-L1 | CDR-L2 | CDR-L3 | group | mean, log10 nM | detected
KLSDPTREWIANQNAVA | EDADTVH | QQYARLPLT | En_Gibbs | 2.25 | 1 of 6
KSSQEFLYESRNKNNVA | WASTREF | QQYHRYPLS | Ctrl | 2.02 | 1 of 6
KSHDAVLYESRNKNSVA | WASTRES | QQYHRLPLS | Ctrl | 1.35 | 6 of 6
KLSISYLYESRNKNSVA | EASTRES | QQYHRLPLS | GP_HC | 0.75 | 6 of 6
KSSQSVLYDSSNKNSVA | WASTRES | QQYHRLPLS | Ctrl | 0.40 | 1 of 6
KLSQSVWVLSRNKNSVA | NASTRES | QQYHRLPLS | GP_Gibbs | -0.17 | 6 of 6
MVTQLMLWGWHAKNSIA | EAQTRVN | QQYDRLPLD | En_Gen | not detected | 0 of 6
KVSQSVLYESRNKNSVA | WASCRES | QQYHRLPLS | Ctrl | 1.48 | 6 of 6
KSPISLLYESRNKNSVA | AASTRES | QQYHRLPLS | GP_HC | 1.59 | 6 of 6
RSSQSVLYEDANKNSVA | KASTRES | QQYHRLPLS | Ctrl | 0.73 | 6 of 6
KIGGVTNGISRNANSVA | EQSTRED | QQYNRLPLS | En_HC | 0.21 | 6 of 6
KISQSVVYESRNKNSVA | MASWRES | QQYHRLPLS | Ctrl | 0.72 | 6 of 6
KLNQDPVLKTNINNSVA | DHSEVVQ | QQYFHLPLQ | En_Gibbs | 0.82 | 6 of 6
KSSQVEDYESRNKNSVA | WASTRES | QQYHELPLS | Ctrl | not detected | 0 of 6
TISGLIMMPSRNKNSVA | NTSTRYS | QQYHRLPLS | En_HC | 0.86 | 6 of 6
KVSEFMRGLMQRQDSIA | DNVTRNS | QQYDRLPLS | En_Gen | 2.37 | 5 of 6
KSSQGVLYESRNKNSVA | WASTRSN | QQYHRLPLS | Ctrl | 1.93 | 3 of 6
KSSASVLYESRNKNAVA | DASTRES | QQYHRLPLS | Ctrl | 0.52 | 6 of 6
KLSQSWLYESRNKNSVA | NASTRMM | QQYHRLPLS | GP_Gen | -0.30 | 6 of 6
KITATMRFEQKNSNNIA | EVTTRTK | QQYVRLPLA | En_Gen | not detected | 0 of 6
KLSVSTSWLSVNKNSVA | EMSTRES | QQYDRLPLS | En_HC | 0.53 | 6 of 6
RLTNEFFKEKERKNSVA | HADQRCM | QQYFRLPLI | En_Gibbs | 0.84 | 6 of 6
SLYEWETDGQDKSNNIA | EDSHLLE | QQYFHLPLK | En_Gibbs | 0.69 | 6 of 6
KSSISYLYESVNKNSVA | AASTRES | QQYHRLPLS | GP_HC | 0.61 | 6 of 6

Second part, the sequence after the result:

mean, log10 nM | detected | CDR-L1 | CDR-L2 | CDR-L3 | group
-0.14 | 6 of 6 | KLSWSVLYESRNKNNVA | GASTRES | QQYHRLPLS | GP_Gen
0.42 | 6 of 6 | KIGMTLNMMMHTKNNVA | DLVTREN | QQYHRLPLS | En_Gen
0.53 | 6 of 6 | KISQSVLYESDNKNSVA | WASTREV | QQYHRLPLL | Ctrl
2.63 | 1 of 6 | KSSQSVLYESRNANSVA | WASTRTS | QQYHRLPLS | Ctrl
0.88 | 6 of 6 | HLSDAVKMESRNTNSVA | DNSTRGS | QQYDRLPLS | En_HC
1.62 | 5 of 6 | KLSQMVLFWGHAINSVA | EMETREN | QQYDRLPLS | En_HC
-0.15 | 6 of 6 | KHSQSVKFESRNKNSVA | DASTRES | QQYHRLPLS | GP_HC
1.15 | 6 of 6 | TIGGTLMYGMRNRSNVA | EVSQRLN | QQYDRLPLF | En_Gen
not detected | 0 of 6 | KSLQSVLYESRNKNSVA | HASTRED | QQNHRLPLS | Rand
2.03 | 6 of 6 | KSSGSVLAESRNKNSVA | WASTRES | QQYHRLPLS | Ctrl
0.17 | 6 of 6 | KLQQSVEYESRNKNNVA | EGSQRES | QQYHRLPLS | GP_Gibbs
-0.07 | 6 of 6 | KLSQSMLYESRNKNSVA | NASTREM | QQYHRLPLS | GP_Gen
1.02 | 6 of 6 | KISGQYRYEQLSKNSIA | EVQTRLK | QQYHRLPLS | En_HC
1.23 | 6 of 6 | IVSQLFLWGMHAKNSIA | EAELRLN | QQYDRLPLI | En_Gen
1.57 | 1 of 6 | KLSQSVLYESRNKNNVA | NASQRES | QQYHRLPLS | GP_Gen
-0.44 | 6 of 6 | KLSQSVLYESRNKNNVA | EASTRED | QQYHRLPLS | GP_Gen
2.64 | 6 of 6 | KLYMSTGYESRNKDSIA | DNSTRGR | QQYHRLPLS | En_HC
3.05 | 4 of 6 | KITMSQYNWTSNYQAVA | EQNMRAR | QSYYRLPFS | En_Gibbs
1.52 | 6 of 6 | MVQQLYNMGTFAINSVA | QASTRNE | QQYDRLPLM | En_Gen
0.51 | 6 of 6 | TLGDVTMQLSRNKNSVA | DASTSED | QQYDRLPLS | En_HC
-0.17 | 6 of 6 | KIGMTLNQLMIKKNNVA | DLVERAN | QQYHRLPLS | En_Gen
-0.28 | 6 of 6 | KFSQGFLYEERNKNSVA | HASQRES | QQYHRLPLS | GP_Gibbs
-0.25 | 6 of 6 | KVSQSELYESRNANNVA | NASTREN | QQYHRLPLS | GP_Gibbs
1.38 | 6 of 6 | HLTEQNFDGERRAYNVA | AGVMHSY | QQYHRLPLM | En_Gibbs

Again, the first 4 entries without any signal:

CDR-L1 | CDR-L2 | CDR-L3 | group | mean, log10 nM | detected
MVTQLMLWGWHAKNSIA | EAQTRVN | QQYDRLPLD | En_Gen | not detected | 0 of 6
KSSQVEDYESRNKNSVA | WASTRES | QQYHELPLS | Ctrl | not detected | 0 of 6
KITATMRFEQKNSNNIA | EVTTRTK | QQYVRLPLA | En_Gen | not detected | 0 of 6
KSLQSVLYESRNKNSVA | HASTRED | QQNHRLPLS | Rand | not detected | 0 of 6